Experimental data as given in patent publication US20060217370A1, “Compounds useful for the treatment and prevention of pain and screening methods therefor” (priority 2005, published 2006).

By UniProt entry, the sequences of proteins in these tests, tags left out. Residues count along the entry.
UniProt Q1L4E8, 1-322: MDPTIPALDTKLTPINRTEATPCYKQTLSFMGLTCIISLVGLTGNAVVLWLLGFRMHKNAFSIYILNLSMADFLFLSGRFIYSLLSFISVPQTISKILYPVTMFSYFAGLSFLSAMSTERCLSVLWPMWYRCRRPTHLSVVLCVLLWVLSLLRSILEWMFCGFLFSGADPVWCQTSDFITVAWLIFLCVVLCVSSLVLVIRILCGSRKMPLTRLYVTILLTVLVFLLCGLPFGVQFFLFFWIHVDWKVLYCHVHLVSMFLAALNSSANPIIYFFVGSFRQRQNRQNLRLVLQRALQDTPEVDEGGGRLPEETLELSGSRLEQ
UniProt Q96LB2, whole entry: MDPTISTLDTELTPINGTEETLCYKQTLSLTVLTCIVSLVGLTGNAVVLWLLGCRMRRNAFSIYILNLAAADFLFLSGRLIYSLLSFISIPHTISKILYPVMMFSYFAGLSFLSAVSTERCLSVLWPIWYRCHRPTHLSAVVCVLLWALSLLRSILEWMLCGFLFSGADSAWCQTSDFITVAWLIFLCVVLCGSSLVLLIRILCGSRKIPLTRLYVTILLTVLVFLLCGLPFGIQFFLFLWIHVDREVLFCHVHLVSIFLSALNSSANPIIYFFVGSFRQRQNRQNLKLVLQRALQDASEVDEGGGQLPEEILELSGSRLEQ
UniProt Q4QXU5, whole entry: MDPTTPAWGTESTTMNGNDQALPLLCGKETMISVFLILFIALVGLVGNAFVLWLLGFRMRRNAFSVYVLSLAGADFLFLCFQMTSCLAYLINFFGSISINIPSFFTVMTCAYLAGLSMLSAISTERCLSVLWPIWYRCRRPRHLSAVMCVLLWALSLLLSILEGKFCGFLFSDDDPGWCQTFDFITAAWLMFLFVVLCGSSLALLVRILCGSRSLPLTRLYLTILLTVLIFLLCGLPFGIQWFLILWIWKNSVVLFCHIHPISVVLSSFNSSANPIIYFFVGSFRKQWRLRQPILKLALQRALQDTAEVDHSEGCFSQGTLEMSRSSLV
UniProt Q96LB1, whole entry: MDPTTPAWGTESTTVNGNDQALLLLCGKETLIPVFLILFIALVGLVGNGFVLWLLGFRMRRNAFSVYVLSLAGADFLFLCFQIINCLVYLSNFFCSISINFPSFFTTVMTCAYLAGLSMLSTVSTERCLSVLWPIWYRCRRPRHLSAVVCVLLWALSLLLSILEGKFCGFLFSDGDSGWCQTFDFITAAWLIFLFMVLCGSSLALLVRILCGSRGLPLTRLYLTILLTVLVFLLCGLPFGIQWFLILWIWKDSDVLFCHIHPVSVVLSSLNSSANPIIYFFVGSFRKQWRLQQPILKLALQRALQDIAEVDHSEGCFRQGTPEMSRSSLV

Tests used:
Assay in all cases: Receptor Selection and Amplification Technology (R-SAT) functional receptor assay
simian MrgX1 = simian MrgX1 (Macaca mulatta, UniProt Q1L4E8, cells depend on it, form not given, species not given); conditions: for Monkey-X1 Eff(%): efficacy relative to Bam22, nr = no response up to 10 micromolar; for Monkey-X1 pEC50: transfected NIH3T3 cells
Method: (§1) The functional receptor assay, Receptor Selection and Amplification Technology (R-SAT), was used to investigate the pharmacological properties of test compounds on MRGX1 or MRGX2 receptors. R-SAT is disclosed in U.S. Pat. Nos. 5,707,798, 5,912,132, and 5,955,281, each of which is incorporated by reference herein in its entirety, including any drawings.
(§2) Briefly, NIH3T3 cells were grown in 96-well tissue culture plates to 70-80% confluence. Cells were transfected for 16-20 h with plasmid DNAs using Polyfect (Qiagen Inc.) and the manufacturer's protocols. R-SATs were generally performed with 4 ng/well of receptor and 20 ng/well of β-galactosidase plasmid DNA. The human MrgX1, simian MrgX1, human MrgX2 and simian MrgX2 receptor genes were amplified by PCR from genomic DNA using oligodeoxynucleotide primers based on SEQ ID NO:1, SEQ ID NO:3, SEQ ID NO:5, SEQ ID NO:7, or SEQ ID NO:9. For large-scale transfections, cells were transfected for 16-20 h, then trypsinized and frozen in DMSO. Frozen cells were later thawed, plated at ˜10,000 cells per well of a 96 half-area well plate that contained test compound. With both methods, cells were then grown in a humidified atmosphere with 5% ambient CO2 for five days. The medium was then removed from the plates and marker gene activity was measured by the addition of the β-galactosidase substrate o-nitrophenyl β-galactopyranoside (ONPG, in PBS with 0.5% NP-40). The resulting colorimetric reaction was measured in a spectrophotometric plate reader (Titertek Inc.) at 420 nm. All data were analyzed using the computer program XLFit (IDBSm). Efficacy is defined as the percent maximal activation compared to activation by a control compound (BAM22 in the case of human or simian MRGX1, STIA or Cortistatin-14 in the case of human or simian MRGX2). pEC50 is the negative of log(EC50), where EC50 is the calculated molar concentration of test compound that produces 50% of maximum activation.
(§3) Efficacy is reported relative to the ligands Bam22 for MrgX1 and STIA for MrgX2.

human MrgX1 = human MrgX1 (Homo sapiens, UniProt Q96LB2); conditions: for Human-X1 Eff(%): efficacy relative to Bam22, nr = no response up to 10 micromolar
Method: as §1, §2, §3

simian MrgX2 = simian MrgX2 (Macaca mulatta, UniProt Q4QXU5, cells depend on it, form not given, species not given); conditions: for Monkey-X2 Eff(%): efficacy relative to STIA, nr = no response up to 10 micromolar
Method: as §1, §2, §3

human MrgX2 = human MrgX2 (Homo sapiens, UniProt Q96LB1); conditions: for Human-X2 Eff(%): efficacy relative to STIA, nr = no response up to 10 micromolar
Method: as §1, §2, §3

| Compound | Monkey-X1 Eff(%) (simian MrgX1) | Monkey-X1 pEC50 (simian MrgX1) | Human-X1 Eff(%) (human MrgX1) | Monkey-X2 Eff(%) (simian MrgX2) | Monkey-X2 pEC50 (simian MrgX2; transfected NIH3T3 cells) | Human-X2 Eff(%) (human MrgX2) | Human-X2 pEC50 (human MrgX2; transfected NIH3T3 cells) | Human-X1 pEC50 (human MrgX1; transfected NIH3T3 cells) |
| --- | --- | --- | --- | --- | --- | --- | --- | --- |
| CC(C)[C@H]1C(=O)Nc2ccc(NC3CCCCCC3)cc2-c2nc3cc(C(=O)N4CCCN(C)CC4)ccc3n21 | 41% | 5.8 | nr | 44% | 6.3 | 95% | 6.7 | – |
| CC(=O)NC1CCN(c2ccc3c(c2)-c2nc4cc(C(=O)N5CCN(c6ccc(F)cc6)CC5)ccc4n2[C@@H](C(C)C)C(=O)N3)C1 (stereo partly shown) | 89% | 5.6 | 72% | nr | – | nr | – | 7.0 |
